Laboratory results as given in paper PMC9496151, “Expression and Function of ABC Transporters in Human Alveolar Epithelial Cells” (Biomolecules, 2022).

Assays:
ABCG2/BCRP [1] = assay: Bidirectional transport of Bodipy FL Prazosin (BCRP activity) in EpiAlveolar; settings: 3 µM Bodipy™ FL Prazosin
Protocol: (§1) The activity of ABC transporters was determined by measuring the apical-to-basolateral (AB) and basolateral-to-apical (BA) fluxes of specific substrates. To this aim, cell monolayers were washed twice in HBSS and equilibrated for 30 min in the same solution (pH 7.4, 37 °C). […] After 0, 30, 60, and 120 min, aliquots of the solution were collected from the opposite chamber (receiver chamber) and replaced with the same volume of HBSS. The fluxes were determined by reading fluorescence with an EnSpire® Multimode Plate Reader (Perkin Elmer), or radioactivity with MicroBeta^2 liquid scintillation spectrometer. The apparent permeability coefficient (Papp) was calculated from the data obtained.
(§2) Efflux ratio (ER) was calculated as the ratio between Papp measured for BA and AB fluxes, while uptake ratio (UR) was the ratio between Papp measured for AB and BA fluxes.

ABCG2/BCRP [2] = assay: Bidirectional transport of Bodipy FL Prazosin (BCRP activity) in hAELVi; settings: 3 µM Bodipy™ FL Prazosin
Protocol: as §1, §2

- Papp, AB versus BA fluxes (ABCG2/BCRP [1]): almost identical
- Papp, AB versus BA fluxes (ABCG2/BCRP [2]): almost identical
Substance: Bodipy™ FL Prazosin
